How the values were obtained:
[1] = target: T1, mouse eugenol OR (mOR-EG) (Mus musculus, UniProt Q920P2); assay: mOR-EG/PLC Ca2+ imaging: mOR-EG + Gα15 in HEK293T cells; format: cell-based; conditions: read-out: PLC-mediated Ca2+ response, EC50
T1 sequence (Q920P2 1-313): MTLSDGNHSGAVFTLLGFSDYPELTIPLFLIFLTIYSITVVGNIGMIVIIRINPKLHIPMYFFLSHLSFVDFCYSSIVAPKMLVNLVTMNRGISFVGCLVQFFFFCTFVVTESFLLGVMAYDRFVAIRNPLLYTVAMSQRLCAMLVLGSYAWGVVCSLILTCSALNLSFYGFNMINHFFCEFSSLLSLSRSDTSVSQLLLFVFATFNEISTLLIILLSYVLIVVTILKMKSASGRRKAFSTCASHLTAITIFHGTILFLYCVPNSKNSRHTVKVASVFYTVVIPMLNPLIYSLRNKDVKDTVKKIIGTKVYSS

[2] = target: T1, mouse eugenol OR (mOR-EG); assay: mOR-EG/AC Ca2+ imaging: mOR-EG + Gαolf + CNGC-camp in HEK293T cells; format: cell-based; conditions: read-out: AC-mediated Ca2+ response, EC50
[3] = pH 7; cited from earlier work
[4] = source not stated; cited from earlier work

For isoeugenol, the EC50 [1] is listed as 35.4 µM, the EC50 [2] is listed as 286 µM and the solubility [3] is listed as 7.3/3.08 mmol/l. The logP [4] was 7.3/3.08.

Reference: PMC4188773 (Cell calcium, 2014)
